Amino acid sequences for entries named in this document (tags omitted).
Guanine nucleotide-binding protein G(i) subunit alpha-3 (Rattus norvegicus), P08753, UniProt P08753, whole entry, looked up: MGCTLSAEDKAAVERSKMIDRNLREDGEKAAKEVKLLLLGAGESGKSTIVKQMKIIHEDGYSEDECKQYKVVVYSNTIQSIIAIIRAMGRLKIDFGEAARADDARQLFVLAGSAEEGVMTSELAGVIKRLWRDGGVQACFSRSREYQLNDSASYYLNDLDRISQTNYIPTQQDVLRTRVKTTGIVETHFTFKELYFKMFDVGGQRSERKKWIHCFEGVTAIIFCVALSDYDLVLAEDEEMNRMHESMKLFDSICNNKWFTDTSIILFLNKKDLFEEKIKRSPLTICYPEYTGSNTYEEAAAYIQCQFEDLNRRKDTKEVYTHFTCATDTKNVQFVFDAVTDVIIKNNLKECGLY

# The list is not random: actives were taken first. Their share in the collection is about 0.46%.
# HCMV UL50-53 inh: cytomegalovirus nuclear egress complex inhibition | HTRF UL50-UL53 interaction, normalized percent inhibition | inhibition, % (no concentration beside the values) | 190,000 compounds, 0.15% hits; in the data active means inhibition above about 27%, passing the limit was not always enough
# GIV-Gai inh: inhibitors of GIV peptide binding to Galpha-i3, primary screen, biochemical, fluorescence polarization, FITC-GIV GBA peptide, rat Galphai3 | 90 min; stronger effect = lower value; scaled: aluminum fluoride 0%, vehicle 100% | AID 1224905, 2016 | 210,000 compounds, 0.42% hits | percent of control (FP), % (concentration not given with the values) | Guanine nucleotide-binding protein G(i) subunit alpha-3 (Rattus norvegicus), P08753;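 active = replicate mean at 85% of control or lower, very high polarization wells dropped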;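 note: wells of about 15 µL received 100 nL stock; the first replicate is given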
# Numbers without * were called inactive; . = no result.
SMILES,HCMV UL50-53 inh,GIV-Gai inh
O=C(NC1(O)C(=O)c2ccccc2C1=O)c1cnn(-c2ccccc2)c1C(F)(F)F,49,87
Cc1nc(C(=O)NC2(O)C(=O)c3ccccc3C2=O)cs1,60*,95
Cc1ccc2nc(-c3ccccc3NS(=O)(=O)c3ccccc3)ccc2c1,.,101
CC(C)=NNC(=O)C1COc2ccccc2O1 (centres undefined),1,.
O=C(Nc1ccc2c(c1)OCCO2)N1Cc2cccn2-c2ccccc21,7,102
CCc1cccc2c1=NC(=O)C=2c1c(C)[nH]n(-c2ccccc2)c1=O,1,104
Cc1[nH]n(-c2ccccc2)c(=O)c1C1=c2ccccc2=NC1=O,68*,.
CC(C)c1ccc(S(=O)(=O)Nc2cc(C(=O)O)cnc2N(C)C)cc1,-24,75*
CC(C)Cc1ccc(S(=O)(=O)Nc2cc(C(=O)O)cnc2N(C)C)cc1,-20,101
O=C1CCNc2ccc(-c3ccccc3)cc21,-58,14*
O=C1CCNc2cc3ccccc3cc21,-73,119
NC(=O)C1CCN(C2CC(=O)N(Cc3ccc4c(c3)OCO4)C2=O)CC1 (centres undefined),19,.
O=C(CO/N=C/c1ccccc1)N=Nc1c(O)n(CN2CCCC2)c2ccccc12,-27,108
COc1ccc(Nc2cc(-n3nc(C)cc3C)ncn2)cc1Cl,-14,108
CCOc1ccc(CNC(=O)C2CCCN2S(=O)(=O)c2cc3c(cc2Cl)NC(=O)CO3)cc1 (centres undefined),-29,106
Cc1nc(N2c3ccccc3CC2C)nc2c1C(=O)CC(C)C2 (centres undefined),10,101
C=CCOC(=O)C1=C(C)N(CC)C(=O)NC1c1cc2c(cc1Br)OCO2 (centres undefined),-4,100
CCC(C)NC(=O)c1ccc(OCc2nnc(C(=O)Nc3ccc(Cl)cc3)s2)cc1 (centres undefined),.,102
COc1cc(C2C(C(=O)c3cc4cccc(OC)c4o3)=C(O)C(=O)N2c2nnc(C)s2)cc(Br)c1O (centres undefined),-74,27*
COc1cccc2cc(C(=O)C3=C(O)C(=O)N(CCCn4ccnc4)C3c3ccc(F)cc3)oc12 (centres undefined),-61,105
CNc1nc(SCc2c(C)noc2C)nc2ccccc12,51*,.
Cc1noc(C)c1CSc1nc2ccccc2c(=O)n1C(C)C,-9,.
COc1ccccc1OCCCn1c(C(C)N2CCCCC2)nc2ccccc21 (centres undefined),-24,107
CCN1C(=O)C[C@@H](C(=O)NC)[C@@H]1c1ccc(OC)cc1OC,13,102
c1ccc(CNc2nccc3c2c2ncnc(-c4ccccc4)c2n3Cc2ccccc2)cc1,.,107

# Remaining list, next part:
SMILES,HCMV UL50-53 inh,GIV-Gai inh
N/C(Cc1nc2ccccc2s1)=N\O,52*,127
c1ccc2sc(CCc3nc4ccccc4s3)nc2c1,-9,.
COc1cc(C=C2C(=O)NC(=S)NC2=O)ccc1OCC(=O)O,.,99
COc1ccccc1OCCOc1c(Br)cc(C=C2C(=O)NC(=O)NC2=O)cc1OC,-1,104
O=C1NC(=O)C(=Cc2cc(Cl)c(OC(=O)c3ccccc3)c(Cl)c2)C(=O)N1,5,108
COc1cc(C=C2C(=O)NC(=O)NC2=O)cc(Cl)c1OCC(=O)O,72*,96
COc1cc(C=C2C(=O)NC(=O)NC2=O)cc(Cl)c1OCCOc1ccccc1C,61*,92
COc1cc(C=C2C(=O)NC(=S)NC2=O)cc(Cl)c1OCCOc1ccccc1C,-16,97
COc1ccc(C(=O)Oc2c(Cl)cc(C=C3C(=O)NC(=O)NC3=O)cc2OC)cc1,49*,103
COc1ccccc1OCCOc1c(Cl)cc(C=C2C(=O)NC(=O)NC2=O)cc1OC,63*,106
Cc1nn(-c2ccccc2)cc1-c1noc(C(=O)NCc2ccccc2Cl)n1,-32,103
CCc1ccc(N=CC23c4ccccc4C(c4ccccc42)C2C(=O)N(c4ccccc4[N+](=O)[O-])C(=O)C23)cc1 (centres undefined),.,110
O=C(CSc1nc2ccccc2o1)N=Nc1c(O)n(CN2CCCCC2)c2ccccc12,-26,.
C=CCNC(=O)Cn1c(C(F)(F)F)nc2ccccc21,-17,99
N#CC1=C(N)N(c2ccc(F)cc2)C2=C(C(=O)CCC2)C1c1ccc(Br)s1 (centres undefined),.,120
COc1cc(C=C2C(=O)NC(=O)NC2=O)cc(Cl)c1OCCOc1cccc(C)c1,44*,86
COc1cc(C=C2C(=O)NC(=O)NC2=O)ccc1OCC(C)C,-3,98
COc1cc(C=C2C(=O)NC(=S)NC2=O)cc(Cl)c1OCCOc1ccccc1,-13,91
COc1cc(C=C2C(=O)NC(=O)NC2=O)cc(Br)c1OCc1ccccc1Cl,7,105
COc1cc(C=C2C(=O)NC(=O)NC2=O)cc(Br)c1OCC(C)C,87*,105
COc1cc(C=C2C(=O)NC(=O)NC2=O)cc(Cl)c1OCc1ccc(Cl)cc1,72*,87
COc1ccc(N2CCN(c3cc(C(=O)O)c4cc(NC(=O)C5CCC5)ccc4n3)CC2)cc1,-53,107
CCCN1CCN(C(=O)c2cc3cc4ccc(OC)c(Cl)c4nc3s2)CC1,-115,104
CCOC(=O)c1[nH]c(C)c(CCC(=O)N2CCCC(C(=O)N3CCCCC3)C2)c1C (centres undefined),.,103
COc1ccc(N(Cc2nc3nc(C)c(Cl)c(C)n3n2)C(=O)C(C)(C)C)cc1,-20,109

# Sorted by formula weight (smallest number first): 4 of the compounds above.
SMILES,HCMV UL50-53 inh,GIV-Gai inh
c1ccc2sc(CCc3nc4ccccc4s3)nc2c1,-9,.
CCN1C(=O)C[C@@H](C(=O)NC)[C@@H]1c1ccc(OC)cc1OC,13,102
COc1ccc(N2CCN(c3cc(C(=O)O)c4cc(NC(=O)C5CCC5)ccc4n3)CC2)cc1,-53,107
COc1cc(C=C2C(=O)NC(=O)NC2=O)cc(Br)c1OCc1ccccc1Cl,7,105

# (cont.)
SMILES,HCMV UL50-53 inh,GIV-Gai inh
Cc1ccccc1NC(=O)Nc1ccccc1OCc1cc(=O)n2c(ncn2C(C)C)n1,12,97
Cc1cc(C)c(S(=O)(=O)N2CCC3(CC2)NCCN=C3NC(C)(C)C)c(C)c1,.,102
COc1ccc(C2c3sc(=O)[nH]c3SC3C(=O)N(c4ccc(Br)cc4)C(=O)C32)cc1 (centres undefined),-23,102
NC(=O)CSc1ccc2nnc(-c3ccccc3)n2n1,-10,.
O=C(CSc1ccc2nnc(-c3ccccc3)n2n1)NC1CCCC1,34*,102
O=C(Nc1nc2n(n1)C(c1ccccc1)C=C(c1ccccc1)N2)c1ccco1 (centres undefined),-33,130
O=C(O)CCC(=O)Nc1nc2n(n1)C(c1ccccc1)C=C(c1ccccc1)N2 (centres undefined),-26,83*
COc1ccc(-c2nnc(-c3cc(S(N)(=O)=O)ccc3Cl)o2)cc1,.,104
CC(=O)c1c(C)nc2c(C#N)c(C)n(-c3ccc(Br)cc3)c2c1-c1ccccc1,.,109
Cc1cc2nc(CN3CCCc4ccccc43)cc(=O)n2o1,-60,75*
Cc1cc2nc(COc3ccccc3)cc(=O)n2o1,-5,99
CCOC(=O)CSc1nc2sc3c(c2c(=O)[nH]1)CCC(C(C)(C)C)C3 (centres undefined),-7,111
Nc1ccc2c3c(cccc13)C(=O)C=C2,57*,-30*
NS(=O)(=O)c1ccc2c3c(cccc13)C(=O)N2,-70,.
CN1C(=O)/C(=C2/Sc3ccccc3N2C)SC1=Nc1ccccc1,-15,105
CN1C(=O)/C(=C\c2ccc(C(=O)NCc3ccco3)cc2)SC1=S,-36,101
CC(C(=O)Nc1ccccc1)N(c1nccs1)S(=O)(=O)c1ccccc1 (centres undefined),-18,.
CC(Sc1nc2c([nH]1)c(=O)n(C)c(=O)n2C)C(=O)O (centres undefined),-11,85*

# Copied from the list.
# HCMV UL50-53 inh with CC(C(=O)Nc1ccccc1)N(c1nccs1)S(=O)(=O)c1ccccc1 (centres undefined) stands at -18
# GIV-Gai inh with COc1ccc(-c2nnc(-c3cc(S(N)(=O)=O)ccc3Cl)o2)cc1 stands at 104
# HCMV UL50-53 inh with NC(=O)CSc1ccc2nnc(-c3ccccc3)n2n1 stands at -10

# A portion from further up:
SMILES,HCMV UL50-53 inh,GIV-Gai inh
CC(C(=O)Nc1ccccc1)N(c1nccs1)S(=O)(=O)c1ccccc1 (centres undefined),-18,.
CC(Sc1nc2c([nH]1)c(=O)n(C)c(=O)n2C)C(=O)O (centres undefined),-11,85*

# Screening data deposited in PubChem BioAssay by ICCB-Longwood Screening Facility, Harvard Medical School.
